Article PMC8171112 (Bioorganic & medicinal chemistry, 2021)

Target: T1, catalytic domain of TET2 (TET2CD) (Homo sapiens, UniProt Q6N021)
T1 sequence (Q6N021 with tags, fused parts or gaps limits assumed): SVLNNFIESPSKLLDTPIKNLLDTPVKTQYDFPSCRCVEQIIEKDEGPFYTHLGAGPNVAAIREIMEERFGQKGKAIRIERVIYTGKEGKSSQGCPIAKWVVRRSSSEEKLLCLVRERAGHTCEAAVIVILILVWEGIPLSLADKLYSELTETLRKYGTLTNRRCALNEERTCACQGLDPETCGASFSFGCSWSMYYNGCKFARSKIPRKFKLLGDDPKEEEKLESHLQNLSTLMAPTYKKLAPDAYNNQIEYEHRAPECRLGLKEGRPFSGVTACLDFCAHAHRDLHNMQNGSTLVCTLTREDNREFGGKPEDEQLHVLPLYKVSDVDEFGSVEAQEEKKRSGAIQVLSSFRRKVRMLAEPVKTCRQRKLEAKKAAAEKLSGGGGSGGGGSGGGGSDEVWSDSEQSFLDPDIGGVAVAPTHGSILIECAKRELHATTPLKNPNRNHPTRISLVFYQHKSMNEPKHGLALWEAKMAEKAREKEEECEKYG
Test: ELISA of 5hmC for TET2 activity, cell free
Format: biochemical
Settings: Figure 5A

O=C(O)CCC(=O)C(=O)O [α-KG, α-ketoglutarate, reference compound]
concentration saturating the dioxygenase activity of TET2CD: 20 µM
